Measurements taken from paper PMC9959982 (International Journal of Molecular Sciences, 2023).

System: MT-4 cells
Test: Cytotoxicity in MT-4 cells (MTS/PES)
Conditions: 50% reduction in cell viability, 5 days

**Q.** Which CC50 does the source give for dextran sulfate-5000 [DS-5000] here?
**A.** The CC50 was > 20 µM.
